Legend:
[1] = test system: RM1 prostate cancer subcutaneous tumors; experiment: RM1 subcutaneous tumor in immunocompetent C57BL/J6 mice; details: CN133 1 mg/kg i.p. twice a week, vs placebo
[2] = test system: xenograft prostate cancer model; details: low dose 1 mg/kg compared to high dose 5 mg/kg, nude mice; cited from earlier work
[3] = test system: PMN-MDSCs and T cells of RM1 tumor-bearing mice; experiment: Immune profiling (RNA-seq, RT-qPCR, flow cytometry, immunofluorescence) of RM1 subcutaneous C57BL/J6 model
[4] = test system: RM1 prostate cancer subcutaneous tumors; experiment: RM1 subcutaneous tumor in immunodeficient BALB/c nude mice; details: CN133 1 mg/kg i.p. twice a week, vs placebo
[5] = vs placebo or single treatment, day 25

For `CN(Cc1ccc(/C=C/C(=O)NO)cc1)CC12CC3CC(CC(C3)C1)C2`, the tumor growth inhibition [1] is given as 36.5%, the tumors volume [2] is given as “marked reduction in tumors volume” and the “HGF and CCL5 expression in tumors (RNA-seq)” value ([3]; CN133 treatment vs placebo) is given as “HGF and CCL5 downregulation significantly”. For the same molecule, the “IL-1ra expression in FACS-isolated prostate cancer cells (RT-qPCR)” value ([3]; CN133 treatment vs placebo) was “markedly upregulation”, the “Pro-MDSCs accumulation cytokines in FACS-isolated prostate cancer cells (RT-qPCR)” value ([3]; CN133 treatment vs placebo) was “lower levels of the Pro-MDSCs including IL6, CCL5, CCL12, and HGF” and the “Arg-1 and iNOS secretion in PMN-MDSCs (flow cytometry)” value ([3]; spleens, day 25) was “reduced immunosuppressive enzymes secretion (Arg-1, iNOS)”. For the same molecule, the “granzyme B and perforin secretion in CD8+ T cells (flow cytometry)” value ([3]; spleens, day 25) was “markedly increased cytotoxic mediator secretion (granzyme B, perforin)”, the “CD8+ TILs in tumors (fluorescent images)” value ([3]; tumor tissue, day 25) was “slightly increased CD8 + TILs” and the “CD4+ and CD8+ T cells in blood and spleen (flow cytometry)” value [3, 5] was “mild upregulation of CD4 + and CD8 + T cells”. The “PMN-MDSCs in blood and spleen (flow cytometry)” value [3, 5] was “statistically significant decreased in the PMN-MDSCs” and the tumor growth inhibition [4] was 26.8%.

Reference: publication PMC10601128
